# Data published in ChEMBL document CHEMBL1926662, “Trace amine-associated receptor 1 is a stereoselective binding site for compounds in the amphetamine class” (Bioorg Med Chem, 2011).
# Molecular target: T1, Trace amine-associated receptor 1 (Homo sapiens) (UniProt Q96RJ0)
# T1 sequence (whole entry): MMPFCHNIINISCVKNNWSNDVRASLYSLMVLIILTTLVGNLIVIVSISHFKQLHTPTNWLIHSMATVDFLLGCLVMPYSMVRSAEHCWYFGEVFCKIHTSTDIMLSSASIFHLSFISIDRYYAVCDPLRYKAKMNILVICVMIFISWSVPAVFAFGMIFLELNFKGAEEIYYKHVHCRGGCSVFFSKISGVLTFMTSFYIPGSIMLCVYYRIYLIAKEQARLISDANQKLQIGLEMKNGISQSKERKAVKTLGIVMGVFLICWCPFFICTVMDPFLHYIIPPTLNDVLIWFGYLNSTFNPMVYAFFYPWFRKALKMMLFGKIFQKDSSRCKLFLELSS
# Test: Activation of human TAAR1 expressed in CHOK1 cells co-expressing Gq protein, Galpha16 using calcium4 dye by microplate reader
# Assay type: functional, cell-based
# Conditions: CHO-K1
smiles,measurement,value
C[C@H](N)Cc1cccc(C(F)(F)F)c1,Activity,43%
